For assay [1], the target named is Amine oxidase [flavin-containing] B (Homo sapiens, UniProt P27338). Description: Inhibition of recombinant human MAO-B using kynuramine as substrate assessed as 4-hydroxyquinoline production after 30 mins by fluorescence spectrophotometry analysis.
For another assay, the species on record is Homo sapiens. Nature of the assay: Selectivity index, ratio of IC50 for recombinant human MAO-A to IC50 for recombinant human MAO-B.

Protein sequences, listed by entry. Tags and fused reporters are not part of them.
UniProt P27338, whole entry: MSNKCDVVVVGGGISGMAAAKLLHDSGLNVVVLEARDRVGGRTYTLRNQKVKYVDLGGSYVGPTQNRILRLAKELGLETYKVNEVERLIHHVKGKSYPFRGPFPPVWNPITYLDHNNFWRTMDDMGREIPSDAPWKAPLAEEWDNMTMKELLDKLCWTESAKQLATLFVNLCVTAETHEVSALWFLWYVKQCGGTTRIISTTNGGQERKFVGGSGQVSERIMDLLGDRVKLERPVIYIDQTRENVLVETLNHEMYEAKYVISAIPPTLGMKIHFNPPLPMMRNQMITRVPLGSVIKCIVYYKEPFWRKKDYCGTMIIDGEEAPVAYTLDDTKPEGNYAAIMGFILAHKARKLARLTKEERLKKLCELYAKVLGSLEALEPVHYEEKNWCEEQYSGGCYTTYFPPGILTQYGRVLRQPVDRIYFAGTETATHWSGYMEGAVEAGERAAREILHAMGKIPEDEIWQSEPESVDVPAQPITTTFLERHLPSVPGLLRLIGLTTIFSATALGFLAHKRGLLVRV

One molecule from ChEMBL document CHEMBL3286387, “α-Tetralone derivatives as inhibitors of monoamine oxidase” (Bioorg Med Chem Lett, 2014) can be followed below.

Consider `O=C1CCCc2cc(OCc3ccc(Cl)cc3)ccc21`, for which the IC50 (as a rule, the concentration at which inhibition is half-maximal) in assay [1] amounted to 7 nM. Also, the Ratio IC50 in the assay filed under Homo sapiens is 34.
